The values that follow come from patent US20020006942A1, “Methods of treating liver disorders and disorders associated with liver function” (priority 2000, published 2002).

This data set has as its system CYP7A1 mRNA expression by rat hepatoma L35 cells. The following applies: THP-1 cells with CDCA 100 μM and rosiglitazone; L35 cells 24 h. How it is done:
Rat L35 cells were cultured in Dulbecco's modified eagle medium (DMEM) as described (Trawick, et al., 1996, J. Lipid Res. 37:24169-24176; Trawick, et al., 1997, J Biol. Chem. 272:3099-3102). THP-1 cells, were cultured as described (Moulton, et al., 1992, Proc. Natl. Acad. Sci. USA. 89:8102-8106).
RNA was isolated, blotted onto nitrocellulose and probed with ^32P-labeled cDNA encoding rat CYP7A1 and β-actin. The relative abundance of CYP7A1 mRNA to (β-actin MRNA was determined using Phosphorimager quantitation (Molecular Biosystems).
After 24 hours, cells were harvested, polyA RNA was isolated, blotted onto nitrocellulose and probed with ^32P-labeled cDNA encoding rat CYP7A1 and β-actin.
After 24 h, cells were harvested and the relative level of CYP7A mRNA to β-actin MRNA was quantitated.

In the case of `CN(CCOc1ccc(CC2SC(=O)NC2=O)cc1)c1ccccn1` (stereo not shown) [rosiglitazone], the “effect on ability of THP-1 cells exposed to CDCA to produce conditioned medium that represses CYP7A1 expression by L35 cells” value is reported as “blocked”.
